Results on 47 compounds are retold here after PubChem BioAssay AID2066 (NMMLSC, 2009).

Only a part is listed here, and it is no random draw. Calls of active or inactive are those of the source.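 The calls were made as follows: active = GFP response relative to DMSO above a set limit, near screen average plus 3 SD (cut at about 150% in these data); inconclusive = fewer than 70 cells counted for the yeast strain; inactive = the rest.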

This assay in a line: yeast AGP1-GFP level changes, GLN3 branch – cell-based, multiplex flow cytometry, S. cerevisiae, MLPCN library, primary screen (AID 2066).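 Also: median GFP channel fluorescence of the gated AGP1 strain per well.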 The note with it: 3 h, at 10 µM, stronger effect = higher value, GFP as percent of DMSO wells. On the technique in general: Flow cytometry measures light scatter and fluorescence of single cells or particles in a stream.
With `CN(C(=O)Cc1ccc(Cl)c(Cl)c1)[C@H]1CCCC[C@H]1N1CCCC1`, the GFP response vs DMSO is inactive: 90%. Consider `NC(=O)c1cc([N+](=O)[O-])cc([N+](=O)[O-])c1N`, for which the GFP response vs DMSO is inactive: 94%. On to `Clc1ccc(Cl)c(NC2=NCC(CBr)S2)c1` (configuration not stated), for which the GFP response vs DMSO was inactive: 89.2%. Consider `CN1CCCC(OC(=O)C(c2ccccc2)c2ccccc2)C1` (configuration not stated), for which the GFP response vs DMSO is inactive: 105%. `Cc1ccc(OP(=O)(Nc2nccs2)Oc2ccc(C)cc2)cc1`: the GFP response vs DMSO was inactive: 109%. To `COc1ccccc1OP(=O)(Nc1ccc(C)cn1)Oc1ccccc1OC` belongs inactive: 101%; to `Cc1c2non([O-])c-2c(C)[n+](=O)[n+]1[O-]`, inactive: 92.3%.

Regarding `O=C(NC(Sc1ccncn1)C(Cl)(Cl)Cl)c1ccccc1` (configuration not stated), the GFP response vs DMSO was inactive: 102%. For `Oc1ccccc1CNc1ccccn1`, the GFP response vs DMSO is inactive: 98.7%. To `CC(C)CC(=O)NC(Sc1ccc(Cl)cc1)C(Cl)(Cl)Cl` (configuration not stated) belongs inactive: 102%; to `Nc1cc(N)c2nonc2c1[N+](=O)[O-]`, inactive: 99.6%. As for `CCOc1ccc(C2=NCC(CBr)S2)cc1` (configuration not stated), the GFP response vs DMSO was inactive: 103%. In the case of `O=P1(Nc2nc3ccc(Cl)cc3s2)COc2ccccc2O1` (configuration not stated), the GFP response vs DMSO was inactive: 98.1%.

Turning to `CC(C)(C)C(=O)NC(Sc1ccccc1)C(Cl)(Cl)Cl` (configuration not stated), the GFP response vs DMSO is inactive: 88.6%. On to `C[C@@H]1C=CCP(=O)(Oc2ccccc2)O1` (some centres not stated), for which the GFP response vs DMSO is inactive: 89.8%.

Regarding `C[C@H]1OP(=O)(Oc2ccccc2)C[C@@H]2O[C@@H]21` (some centres not stated), the GFP response vs DMSO was inactive: 89.1%. For the compound `Cc1ccccc1CN(C)C(=O)COC(=O)C(O)(c1ccccc1)c1ccccc1`, the GFP response vs DMSO was inactive: 106%. On to `CC(=O)c1ccc(N2CC2c2ccncc2)cc1` (configuration not stated), for which the GFP response vs DMSO was inactive: 100%. For `CC(=O)Nc1ccc(Oc2c([N+](=O)[O-])cc([N+](=O)[O-])cc2[N+](=O)[O-])cc1`, the GFP response vs DMSO was inactive: 94.8%.

Turning to `CC(=O)Nc1ccc([As](=O)(O)O)c(O)c1`, the GFP response vs DMSO is inactive: 99.7%.

For `CCOC(=O)NC(Sc1ccccc1)C(Cl)(Cl)Cl` (configuration not stated), the GFP response vs DMSO is inactive: 105%.

For the compound `Cc1ccc(NP(=O)(Oc2cccc(C)c2)Oc2cccc(C)c2)nc1`, the GFP response vs DMSO is inactive: 96.8%.

Turning to `c1ccc(-c2nn[nH]n2)c(-c2nn[nH]n2)c1`, the GFP response vs DMSO was inactive: 99%. In the case of `CCNC(=S)/N=C(\N)N[N+](=O)[O-]`, the GFP response vs DMSO was inactive: 103%. To `O=C(NC1CCS(=O)(=O)C1)NP(=S)(Oc1ccccc1)Oc1ccccc1` (configuration not stated) belongs inactive: 95.7%; to `CCC(=O)N1C2C3N(C(=O)CC)C1C1N(C(=O)CC)C(C(N1C(=O)CC)N3C(=O)CC)N2C(=O)CC`, inactive: 106%; to `O=C(OC1CN2CCC1CC2)c1ccccc1` (configuration not stated), inactive: 96.5%. The value for `Cc1ccc(OP(=O)(Nc2ccccn2)Oc2ccc(C)cc2)cc1` was inactive: 100%. Regarding `CC(=O)NC(SC(=S)N(CC(C)C)CC(C)C)C(Cl)(Cl)Cl` (configuration not stated), the GFP response vs DMSO is inactive: 93.7%. To `COC(=O)c1cc2c(s1)N=C(c1ccccc1)N(C)P2(=O)N1CCOCC1` (configuration not stated) belongs inactive: 111%; to `CN(C)C(=O)Oc1noc2ccccc12`, inactive: 93.3%. `Cc1ccccc1OP(=O)(Nc1ccccn1)Oc1ccccc1C`: the GFP response vs DMSO was inactive: 101%.

`CC(NC(=O)COC(=O)C(O)(c1ccccc1)c1ccccc1)c1ccccc1` (configuration not stated): the GFP response vs DMSO is inactive: 99.8%. Consider `O=P(Nc1ccccn1)(c1ccc(Br)cc1)c1ccc(Br)cc1`, for which the GFP response vs DMSO is inactive: 106%.

Consider `CN(C)C1(CNC(=O)c2ccc(Cl)c(S(N)(=O)=O)c2)CCCCC1`, for which the GFP response vs DMSO is inactive: 98.6%. To `C[C@H]1OP(=O)(Oc2ccccc2)[C@H](O)[C@H](O)[C@H]1N=[N+]=[N-]` (some centres not stated) belongs inactive: 84.8%; to `O=P(Nc1nc2ccccc2s1)(c1ccccc1)c1ccccc1`, inactive: 112%; to `O=[As](O)(c1ccccc1)c1ccc(O)cc1`, inactive: 99.8%. As to `O=[N+]([O-])c1ccc(O)c(/C=N/Nc2ccc([N+](=O)[O-])cc2[N+](=O)[O-])c1`, the GFP response vs DMSO is inactive: 99.2%.

For the compound `O=[N+]([O-])c1ncn(CCn2cnc([N+](=O)[O-])n2)n1`, the GFP response vs DMSO is inactive: 102%. In the case of `CC(=O)NC(SC(=S)N(C)C)C(Cl)(Cl)Cl` (configuration not stated), the GFP response vs DMSO is inactive: 94%.

As to `O=C(OC1CN2CCC1CC2)c1cccc(Cl)c1` (configuration not stated), the GFP response vs DMSO is inactive: 106%.

Consider `Nc1ccc([As](=O)(O)c2ccc([N+](=O)[O-])cc2)cc1`, for which the GFP response vs DMSO is inactive: 106%. Turning to `C(Cc1nn[nH]n1)Cc1nn[nH]n1`, the GFP response vs DMSO was inactive: 97.1%. Turning to `CC(C)C(=O)NC(Sc1ccccc1)C(Cl)(Cl)Cl` (configuration not stated), the GFP response vs DMSO is inactive: 94.3%. The value for `O=P(Nc1nccs1)(c1ccccc1)c1ccccc1` was inactive: 103%. `c1nnnn1CCn1cnnn1`: the GFP response vs DMSO was inactive: 102%.
